What follows are molecules tested against T1, human fascin 1 (Homo sapiens, UniProt Q16658) (assay: Fascin inhibition (actin bundling) assay, image-based). Conditions: in the presence of 50 μm of the compound relative to bundle activity when the compound was not present; read-out: Inhibition (percentage reduction of bundle activity).
T1 construct: GST (N, cleaved yes); made in house; host or cells: Escherichia coli BL21/DE3 (pGEX4T-fascin 1 plasmid)
Type: biochemical
Protocol: Recombinant human fascin 1 was expressed as a GST fusion protein in BL21 Escherichia coli. One liter of 2YT medium with ampicillin was inoculated overnight with 3 mL of BL21/DE3 culture transformed with pGEX4T-fascin 1 plasmid and grown at 37° C. until attenuance at 600 nm (D600) reached about 0.8. The culture was then transferred to 18° C. and induced by the addition of 0.1 mM isopropyl β-d-thiogalactoside (IPTG) for 12 h. Bacteria were harvested by centrifugation at 5,000 r.p.m. for 10 min. The pellets were suspended in 30 mL of PBS supplemented with 0.2 mM PMSF, 1 mM DTT, 1% (v/v) Triton X-100 and 1 mM EDTA. After sonication, the suspension was centrifuged at 15,000 r.p.m. for 30 min to remove the cell debris. The supernatant was then incubated for 2 h with 4 mL of glutathione beads (Sigma) at 4° C. After extensive washing with PBS, the beads were resuspended in 10 mL of thrombin cleavage buffer (20 mM Tris-HCl pH 8.0, 150 mM NaCl, 2 mM CaCl2, 1 mM DTT). Fascin was released from the beads by incubation overnight with 40-100 U of thrombin at 4° C. After centrifugation, 0.2 mM PMSF was added to the supernatant to inactivate the remnant thrombin activity. The fascin protein was further concentrated with a Centricon® (Boca Raton, Fla.) filter to about 50 mg/mL.
Representative compounds described herein were tested for fascin inhibition activity. Purified fascin protein (15 μL of 0.5 μM) in buffer (100 mM KCl, 20 mM Tris/HCl, pH 7.5, 2 mM MgCl2) was added into each well of a clear 384-well flat-bottom plate (Corning) using Thermo Multidrop Combi (Fisher). Compound solutions (5 mM stock, 180 nL) were pin transferred from stock 384-well plates into the 384-well assay plates and incubated for 30 min. Then 15 μL of 0.5 μM polymerized actin (in 100 mM KCl, 20 mM Tris/HCl, pH 7.5, 2 mM MgCl2, 1 mM DTT, 1 mM ATP) (Cytoskeleton Inc.) was added, resulting in 30 μM final concentration for chemical compounds. […] Mixed solution (25 μL) was then transferred to one well in a black 384-well plate coated with poly-D-lysine, and stained actin bundles or F-actin would stick onto the poly-D-lysine plates. After the plates were thoroughly washed with 1×PBS for 3 times, the plate was imaged using an ImageXpress Micro High Content Screening System (Molecular devices). The images were processed and analyzed using MetaMorph software. The raw image data for each well was background-corrected by subtraction of the median intensities across all wells on the plate. The background-corrected data was used to compute the bundle length for each well. The negative control wells were employed for quality control: multiple DMSO-only control wells (16 wells/plate) were present on each assay plate.
`O=C(Nc1nn(Cc2ccc(C(F)(F)F)cc2)c2ccccc12)c1ccccc1` [Compound 4, N-(1-(4-(trifluoromethyl)benzyl)-1H-indazol-3-yl)benzamide] was tested, and the inhibition at 50 µM was 50%.
For `Cc1ncsc1C(=O)Nc1nn(Cc2ccc(C(F)(F)F)cc2)c2ccccc12` [Compound 10, 4-methyl-N-(1-(4-(trifluoromethyl)benzyl)-1H-indazol-3-yl)thiazole-5-carboxamide], the inhibition at 50 µM was 90%.
In the case of `O=C(Nc1nn(Cc2ccc(C(F)(F)F)cc2)c2ccccc12)c1cnon1` [Compound 33, N-(1-(4-(trifluoromethyl)benzyl)-1H-indazol-3-yl)-1,2,5-oxadiazole-3-carboxamide], the inhibition at 50 µM is reported as 80%.
Work on `O=C(Nc1nn(Cc2ccc(C(F)(F)F)cc2)c2ccccc12)c1cncs1` [Compound 36, N-(1-(4-(trifluoromethyl)benzyl)-1H-indazol-3-yl)thiazole-5-carboxamide] yielded an inhibition at 50 µM of 100%.
`Cc1occc1C(=O)Nc1nn(Cc2ccc(C(F)(F)F)cc2)c2ccccc12` [Compound 43, 2-methyl-N-(1-(4-(trifluoromethyl)benzyl)-1H-indazol-3-yl)furan-3-carboxamide] was tested, and the inhibition at 50 µM was 90%.
With `Cc1n[nH]cc1C(=O)Nc1nn(Cc2ccc(C(F)(F)F)cc2)c2ccccc12` [Compound 44, 3-methyl-N-(1-(4-(trifluoromethyl)benzyl)-1H-indazol-3-yl)-1H-pyrazole-4-carboxamide] the inhibition at 50 µM was 95%.
`O=C(Nc1nn(Cc2ccc(C(F)(F)F)cc2)c2cncc(Cl)c12)c1cccnn1` [Compound 139, N-(4-chloro-1-(4-(trifluoromethyl)benzyl)-1H-pyrazolo[3,4-c]pyridin-3-yl)pyridazine-3-carboxamide] was tested, and the inhibition at 50 µM was 90%.

— patent publication US10227345B2, “Compounds and methods for inhibiting fascin” (Cornell University, priority 2014, dated 2019)
